ChEMBL document CHEMBL1135481, “SMall Molecule Growth 2001 (SMoG2001): an improved knowledge-based scoring function for protein-ligand interactions” (J Med Chem, 2002)

Test system: Purine nucleoside phosphorylase
Assay: Binding affinity against Purine Nucleoside Phosphorylase

Log Kd: -8.96
SMILES: O=P(O)(O)OC[C@H]1O[C@@H](n2cnc3cncnc32)[C@H](O)[C@@H]1O
